Molecular target: SARS-CoV-2 M^pro (Severe acute respiratory syndrome coronavirus 2, UniProt P0DTD1)
Assay: biochemical
Settings: read-out: SARS-CoV-2 M^pro enzyme inhibition (%) 100 μM

## CC(C)=CCc1cc(-c2coc3cc(O)ccc3c2=O)ccc1O [Compound 20, neobavaisoflavone]
  inhibition at 100 µM: 84.9 ± 6.3%
